Results published in patent US20160008627A1, “METHODS AND DEVICES FOR VISIBLE LIGHT MODULATION OF MITOCHONDRIAL FUNCTION IN HYPOXIA AND DISEASE” (Clarimedix Inc., priority 2008, published 2016).

Tests used:
[1] = test system: nuclear COX genes for Cco (COX4, COX5a, COX6, COX8); settings: for Relative Expression: average combined expression of COX4, COX5a, COX6, COX8, normalized to PMAI, control = 1.00, 1 mM nitrite, light 3 doses of 6.4 J/cm^2
yeast cells = settings: Hypoxia (1% O2); oxygen consumption vs control

O=NO [+Nitrite, nitrite]
Fold Change (%) ([1]; Hypoxia (1% O2), COX gene expression vs control): −19.2% | Relative Expression ([1]; Hypoxia (1% O2)): 0.808 ± 0.031 | Relative Expression ([1]; Normoxia): 1.024 ± 0.067 | Fold Change (%) (yeast cells): +3.7%

Like-named read-outs stand apart in the source and are kept apart here.
